The record followed here is US8629173B2, “Solid forms comprising (+)-2-[1-(3-ethoxy-4-methoxyphenyl)-2-methylsulfonylethyl]-4-acetylaminoisoindoline-1,3-dione, compositions thereof, and uses thereof” (Celgene Corporation, priority 2002, dated 2014).

The chains behind the UniProt entries cited, without tags or fusion partners. Where a name states a change or a piece, a line headed by the entry shows the natural chain unless it says otherwise.
UniProt Q13946: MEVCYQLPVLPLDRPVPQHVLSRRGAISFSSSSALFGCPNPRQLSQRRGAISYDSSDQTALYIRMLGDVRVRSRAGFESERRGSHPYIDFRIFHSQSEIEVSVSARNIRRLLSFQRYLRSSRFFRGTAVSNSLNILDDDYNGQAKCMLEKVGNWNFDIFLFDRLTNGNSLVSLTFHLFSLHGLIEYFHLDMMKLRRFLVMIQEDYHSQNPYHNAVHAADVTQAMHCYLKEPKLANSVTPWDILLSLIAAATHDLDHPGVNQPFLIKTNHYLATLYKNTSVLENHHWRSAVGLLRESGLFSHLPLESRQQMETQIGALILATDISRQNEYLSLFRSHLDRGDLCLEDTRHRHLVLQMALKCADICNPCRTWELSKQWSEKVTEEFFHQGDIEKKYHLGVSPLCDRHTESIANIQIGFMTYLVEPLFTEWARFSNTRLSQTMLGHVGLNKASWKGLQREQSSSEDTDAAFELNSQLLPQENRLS

The experiment has as its target PDE7 purified from Hut78 human T cells (Homo sapiens, UniProt Q13946). Nature of the experiment: PDE7 enzyme assay. The following applies: from Table 1 data. It is filed as biochemical. How it is done:
PDE7 is a cAMP-selective PDE expressed mainly in T cells and in skeletal muscle. T cell-derived cytokines such as IL-2 and IFN-γ are potentially regulatable via PDE7 inhibition. […] Compounds were tested against the PDE7 preparation in the presence of 10 nM cAMP as described for PDE4 in Table 1.

With `CCOc1cc(C(CS(C)(=O)=O)N2C(=O)c3cccc(NC(C)=O)c3C2=O)ccc1OC` (racemic) [Racemic Compound, 2-[1-(3-Ethoxy-4-methoxyphenyl)-2-methylsulfonylethyl]-4-acetylaminoisoindoline-1,3-dione], the “PDE Specificity Ratio PDE7 IC50/PDE4 IC50” value was 270 fold.
